Data taken from patent US5610310A, “Cyclic lipid derivatives as potent PAF antagonists” (Pohang Iron & Steel Co., Ltd, priority 1995, dated 1997).

Protein sequences, listed by entry. Tags and fused reporters are not part of them. Residues count along the entry.
UniProt G1TEI7, 1-342: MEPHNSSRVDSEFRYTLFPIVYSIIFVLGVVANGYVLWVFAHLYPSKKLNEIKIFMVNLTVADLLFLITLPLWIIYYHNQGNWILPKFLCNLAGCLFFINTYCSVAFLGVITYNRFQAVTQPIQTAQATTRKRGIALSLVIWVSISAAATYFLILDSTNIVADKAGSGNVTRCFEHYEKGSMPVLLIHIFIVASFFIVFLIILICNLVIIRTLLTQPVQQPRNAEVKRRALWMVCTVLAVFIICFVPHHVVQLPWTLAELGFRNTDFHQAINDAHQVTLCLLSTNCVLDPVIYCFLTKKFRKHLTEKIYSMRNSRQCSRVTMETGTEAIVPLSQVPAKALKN

Molecular target: PAF receptor (rabbit platelet membranes) (Oryctolagus cuniculus, UniProt G1TEI7)
Assay: PAF Receptor Binding Assay
Settings: read-out: Kd of [^3 H]PAF used in the Ki calculation; value inserted in the Cheng equation; tested as the radiolabelled form

In the case of CCCCCCCCCCCCCCCCCCOC[C@H](COP(=O)([O-])OCC[N+](C)(C)C)OC(C)=O, the Kd is reported as 0.6 nM.
